This note sets out measurements from PubChem BioAssay AID2517 (National Center for Advancing Translational Sciences (NCATS), 2010).

By UniProt entry, the sequences of proteins in these tests, tags left out.
UniProt P27695, whole entry: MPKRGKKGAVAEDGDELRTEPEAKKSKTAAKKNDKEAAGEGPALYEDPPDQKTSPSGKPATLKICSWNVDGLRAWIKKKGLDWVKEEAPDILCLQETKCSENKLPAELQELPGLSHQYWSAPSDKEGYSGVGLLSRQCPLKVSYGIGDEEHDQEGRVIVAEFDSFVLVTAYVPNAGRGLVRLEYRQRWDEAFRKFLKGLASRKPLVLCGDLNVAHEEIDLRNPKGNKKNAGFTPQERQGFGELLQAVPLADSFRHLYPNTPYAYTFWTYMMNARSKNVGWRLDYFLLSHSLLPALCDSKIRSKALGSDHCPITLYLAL

SMILES strings stand for the structures. The list shows a part of the results, in another mix than the full data. Records with an inconclusive call do not appear. Active and inactive are the calls of the source. Calls follow the shape of the dose curve; as a rule, active = well fitted inhibition curve with a large enough effect; inconclusive = small, poorly fitted or top-dose-only effect; inactive = no such curve, though single readings can be large or run the other way.

The target of the experiment is DNA repair nuclease/redox regulator APEX1 (Homo sapiens) (UniProt P27695). Put plainly: qHTS Assay for Inhibitors of the Human Apurinic/apyrimidinic Endonuclease 1 (APE1).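 Also: plate controls were vehicle for no effect and reference inhibitor for full effect; nearly all actives have a fitted effect of over 55% in size.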 The conditions noted are these: recombinant APE1, TAMRA/BHQ-2 abasic DNA cleavage fluorescence; at 65.8 µM (top of the series). Background: qHTS replaces the single test concentration by a dilution series.
Regarding `c1nnnn1CCn1cnnn1`, the activity change, negative = inhibition is inactive: -1.4%. To `Cc1ccc(C)c(NP(C)(=O)Oc2ccccc2)c1` (configuration not stated) belongs inactive: 13.9%.
